In PubChem BioAssay AID1246 (Columbia University Molecular Screening Center, 2008):
The entries are a selection whose mix differs from that of the whole data set. Calls of active or inactive are those of the source.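 Rule for the calls: active = inhibition above the batch mean plus 3 SD, and confirmed as a hit on visual image review (cut at about 43% in these data); inconclusive = passes the inhibition cutoff but fails visual image review; inactive = the rest.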

Experiment: E-selectin induction blockers in HUVEC – imaging, immunofluorescence, high content, primary screen (AID 1246);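 note: 0% = TNF-stimulated DMSO wells and 100% = unstimulated control wells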
Conditions: HUVEC TNFa-induced E-selectin immunofluorescence, at 2 µM, hits give high values

Compound	inhibition
CC(C)=N/N=C(\N)N[N+](=O)[O-]	inactive: 13.1%
CC1CCN(C(=O)Oc2c(Cl)cc(Cl)c3cccnc23)CC1	inactive: -2.37%
CC(=O)N1C2C3N(C(C)=O)C1C1N(C(C)=O)C(C(N1C(C)=O)N3C(C)=O)N2C(C)=O	inactive: 12.8%
O=[N+]([O-])c1cccc2n[nH]nc12	inactive: 9.91%
COc1ccc(C2=NCC(CBr)S2)cc1 (configuration not stated)	inactive: -18.6%
Cc1cc(SC(NC(=O)c2ccc(F)cc2)C(Cl)(Cl)Cl)ncn1 (configuration not stated)	inactive: 11.7%
CCOP(=O)(Nc1ccccc1)OCC	inactive: 6.69%
CC(C)CC(=O)NC(Sc1ccc(Cl)cc1)C(Cl)(Cl)Cl (configuration not stated)	inactive: 45.4%
Oc1ccccc1CNc1ccccn1	inactive: -40.3%
O=C(NC(Sc1ccncn1)C(Cl)(Cl)Cl)c1ccccc1 (configuration not stated)	inactive: -5.94%
Cc1c2non([O-])c-2c(C)[n+](=O)[n+]1[O-]	inactive: -10.7%
CN1CCCC(OC(=O)C(c2ccccc2)c2ccccc2)C1 (configuration not stated)	inactive: -4.35%
Cc1ccc(N/C(=N/P(=O)(N2CCOCC2)N2CCOCC2)N2CCOCC2)cc1	inactive: -22.8%
CC(=O)Nc1ccc(Oc2c([N+](=O)[O-])cc([N+](=O)[O-])cc2[N+](=O)[O-])cc1	inactive: -35.4%
COC(=O)c1cc2c(s1)N=C(c1ccccc1)N(C)P2(=O)N1CCOCC1 (configuration not stated)	inactive: -32.6%
CC(=O)NC(SC(=S)N(CC(C)C)CC(C)C)C(Cl)(Cl)Cl (configuration not stated)	inactive: 7.99%
CCC(=O)N1C2C3N(C(=O)CC)C1C1N(C(=O)CC)C(C(N1C(=O)CC)N3C(=O)CC)N2C(=O)CC	inactive: 26%
CCOC(=O)NC(Sc1ccccc1)C(Cl)(Cl)Cl (configuration not stated)	inactive: 7.74%
C(Cc1nn[nH]n1)Cc1nn[nH]n1	inactive: -12.5%
CC(=O)NC(SC(=S)N(C)C)C(Cl)(Cl)Cl (configuration not stated)	inactive: 3.99%
c1nnnn1CCn1cnnn1	inactive: -12.7%

Compound	inhibition
O=P(Nc1nccs1)(c1ccccc1)c1ccccc1	inactive: -5.37%
CC1(CBr)Cn2c(nc3ccccc3c2=O)S1 (configuration not stated)	inactive: -2.02%
Clc1n[nH]nc1-c1nn[nH][15n]1	inactive: -1.95%
O=P1(Nc2ccccn2)COc2ccccc2OC1	inactive: 10.4%
Cc1ccc(OCC(=O)OC2CN3CCC2CC3)cc1 (configuration not stated)	inactive: 3.04%
Cc1nn(-c2ccccc2)c2c1P(=O)(N1CCOCC1)N(C)C(c1ccccc1)=N2 (configuration not stated)	inactive: -11.6%
CC1CCC(C(C)C)C(OP(=O)(Nc2ccccn2)c2ccccc2)C1 (configuration not stated)	inactive: -25.6%
O=[N+]([O-])c1ccc2c(c1)nnn2O	inactive: -36.5%
CCOP1(=S)c2c(C)nn(CCC#N)c2N=C(c2ccc(F)cc2)N1C (configuration not stated)	inactive: 16.3%
CCOP1(=S)c2c(C)nn(CCC#N)c2N=C(c2ccccc2F)N1C (configuration not stated)	inactive: 9.38%
O=P(Nc1nccs1)(c1ccccc1)c1nc2ccccc2s1 (configuration not stated)	inactive: -31.9%
COc1cc(C2NCCC3(OCCO3)C2(C)C)cc(OC)c1OC (configuration not stated)	inactive: 4.96%
CCOP(=O)(Nc1cccc2ccccc12)OCC	inactive: 7.72%
Cc1cccc(OCC(=O)OC2CN3CCC2CC3)c1 (configuration not stated)	inactive: 3.93%
O=C(OC1CN2CCC1CC2)C12CC3CC(CC(C3)C1)C2 (configuration not stated)	inactive: 0.09%
CCN(CC)C(=S)SC(NC=O)C(Cl)(Cl)Cl (configuration not stated)	inactive: 25.2%
ClCCSc1nnc(-c2cccnc2)o1	inactive: -14.7%
Cc1cc(SC(NC(=O)c2ccccc2)C(Cl)(Cl)Cl)nc(C(C)C)n1 (configuration not stated)	inactive: -18.3%
CCC(C)N(CC(C)C)C(=S)SC(NC(C)=O)C(Cl)(Cl)Cl (configuration not stated)	inactive: -10.8%
O=C(COc1ccccc1)OC1CN2CCC1CC2 (configuration not stated)	inactive: -1.84%
COP1(=S)c2c(C)nn(CCC#N)c2N=C(c2ccc(F)cc2)N1C (configuration not stated)	inactive: -10%
